Among the data in patent US5532227A, “Tetracyclines including non-antimicrobial chemically-modified tetracyclines inhibit excessive glycosylation of different types of collagen and other proteins during diabetes” (The Research Foundation of State University of New York, priority 1994, dated 1996) are Body weight values, retold here.

For this data set the following is noted: 5 mg daily oral gavage, 21 days; untreated diabetics lost weight.

For the substance tetracycline pyrazole [CMT-5], the Body weight result is “maintained its body weight”.
